{"source": "patent US20200400567A1", "about": "“FUSION POLYPEPTIDE” (PEKING UNIVERSITY, priority 2017, published 2020)", "system": "human acetylcholine receptor M3R subtype", "test": "GRAB-ACh 1.0 in acute mouse hippocampus brain slices, local perfusion, two-photon imaging", "type": "cell-based, mice", "settings": "GRAB-ACh 1.0 expressing cells in brain slices", "note": "Entries after “also recorded” stand apart in the source; their conditions may differ.", "data": [{"smiles": "CN1CCCC1c1cccnc1", "note": "(stereo not shown) [nicotine]", "values": [{"measurement": "fluorescence response to agonist", "result": "but not to; also recorded: cannot induce changes in the fluorescence signal"}]}]}
